Test results published in ChEMBL document CHEMBL1124992, “(Pyrimidinyloxy)acetic acids and pyrimidineacetic acids as a novel class of aldose reductase inhibitors” (J Med Chem, 1990).

Legend:
[1] = molecular target: Aldo-keto reductase family 1 member B1 (Bos taurus) (UniProt P16116); test: In vitro inhibition of aldose reductase from the partially purified bovine lens at 10e-5 M concentration
Method in brief: (§1)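 Bovine lens aldose reductase, partially purified, assayed spectrophotometrically following Hayman and Kinoshita. Each compound was tested at three concentrations, routinely in duplicate.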

[2] = molecular target: Aldo-keto reductase family 1 member B1 (Bos taurus) (UniProt P16116); test: In vitro inhibition of aldose reductase from the partially purified bovine lens at 10e-7 M concentration; method in brief: as §1
[3] = molecular target: Aldo-keto reductase family 1 member B1 (Bos taurus) (UniProt P16116); test: In vitro inhibition of aldose reductase from the partially purified bovine lens at 10e-6 M concentration; method in brief: as §1

Row | inhibition [1] [%] | inhibition [2] [%] | inhibition [3] [%] | Compound
1 | 98 | – | – | COc1ccc2c(C(=S)N(C)CC(=O)O)cccc2c1C(F)(F)F [TOLRESTAT]
2 | 94 | 91 | 94 | CCCCCCSc1nc(C(C)(C)C)nc(OCC(=O)O)c1C#N
